Data as given in patent US8816122B2 (The Board of Trustees of the Leland Stanford Junior …, priority 2009, dated 2014).

Test system: CD69
Assay: CD69 surface marker induction in primary quiescent CD4+ T cells
Type: cell-based

In the case of `CCC/C=C/C=C/C(=O)O[C@H]1/C(=C/C(=O)OC)C[C@H]2C[C@H]([C@@H](C)O)OC(=O)C[C@H](O)C[C@@H]3C[C@H](OC(C)=O)C(C)(C)[C@](O)(C[C@@H]4C/C(=C/C(=O)OC)C[C@H](/C=C/C(C)(C)[C@]1(O)O2)O4)O3` [Bryostatin 1, reference compound], the “Minimum Concentration for CD69 Induction” value is reported as 1 nM.
